PubChem BioAssay AID2094 (Broad Institute, 2009)
This is a selection; strong and weak results do not stand in their true shares. Active and inactive are the calls of the source. Rule as the data show it: active = activity change below about -75% (passing the limit was not always enough); inconclusive = no clear call, values can overlap the other calls.

test: Vibrio harveyi AI-2 quorum sensing modulators, primary screen, JMH597 strain, luminescence/OD600 ratio (AID 2094); conditions: Vibrio harveyi JMH597 AI-2 luminescence/OD600 ratio, 9 h; at 7.5 µM; stronger effect = lower value; 0 = neutral-control median; strain lacks LuxN and CqsS sensors

Row | SMILES | activity change
1 | O=C(NCC1(N2CCCCC2)CCCCC1)c1ccc(F)cc1 | inactive: 26.2%
2 | COc1ccc(NC2CCN(CCc3ccccc3)CC2)c(OC)c1 | inactive: 15.5%
3 | CCOC(=O)N1CCC(Nc2ccc(F)cc2)CC1 | inactive: 3.61%
4 | CCOc1ccc(C)cc1CN(CCCl)CCCl | inactive: 27.6%
5 | CCOC(=O)N1CCC(Nc2cccc(C)c2)CC1 | inactive: 19.7%
6 | COc1cc(C(=O)NCC2(N(C)C)CCCCC2)ccc1OC(F)F | inactive: 21.1%
7 | Cc1ccc(OCC(C)C)c(CN(CCCl)CCCl)c1 | inactive: -4.1%
8 | O=C(NCC1(N2CCCCC2)CCCCC1)c1ccc(=O)[nH]c1 | inactive: 18.5%
9 | O=C(NCC1(N2CCCCC2)CCCCC1)c1cccs1 | inactive: 13.7%
10 | COc1ccc(C(=O)NCC2(N3CCCCC3)CCCCC2)cc1 | inactive: 14.2%
11 | COc1ccc(C(=O)NCC2(N3CCCCC3)CCCCC2)c(OC)c1OC | inactive: 12%
12 | CC(C)(C)OC(=O)N1CCC(N(C(=O)c2ccccc2)c2ccc(F)cc2)CC1 | inactive: 17.4%
13 | CCOC(=O)N1CCC(Nc2ccc(OC)cc2)CC1 | inactive: 2.73%
14 | N#CC1(Nc2ccccc2)CCN(Cc2ccccc2)CC1 | inactive: 1.15%
15 | O=C(OC1CN2CCC1CC2)C1c2ccccc2Oc2ccccc21 (stereo not drawn) | inactive: 24.6%
16 | O=C(NCC1(N2CCOCC2)CCCCC1)c1cc2ccccc2o1 | inactive: 14.8%
17 | O=C(NCC1(N2CCCCC2)CCCCC1)c1ccc(Cl)nc1 | inactive: -5.81%
18 | Cc1cc(C)cc(N(C(=O)c2ccccc2)C2CCN(C(=O)OC(C)(C)C)CC2)c1 | inactive: 1.89%
19 | COc1cc(OC)c(C(=O)NCC2(N(C)C)CCCCC2)cc1OC | inactive: 21.2%
20 | COc1ccc(CN(CCCl)CCCl)cc1Cl | inactive: 5.52%

Row | SMILES | activity change
21 | CN(C)c1cccc(C(=O)NCC2(N3CCCCC3)CCCCC2)c1 | inactive: 8.17%
22 | CC(C)c1ccc(NC2CCN(C(=O)OC(C)(C)C)CC2)cc1 | inactive: 27.6%
23 | CCCOc1ccc(C(=O)NCC2(N(C)C)CCCCC2)cc1OC | inactive: 9.16%
24 | CN1CCC(Nc2cccc(F)c2)CC1 | inactive: 3.24%
25 | O=C(NCC1(N2CCCCC2)CCCCC1)c1cccc([N+](=O)[O-])c1 | inactive: 12.4%
26 | CCN1CCC(Nc2ccc(Cl)cc2)CC1 | inactive: 33%
27 | N#CC1(Nc2ccccc2)CCN(CCc2ccccc2)CC1 | inactive: 15.9%
28 | O=C(NCC1(N2CCCCC2)CCCCC1)c1ccc(OC(F)F)cc1 | inactive: 23.9%
29 | CN1CCN(CCOC(=O)C(O)(c2ccccc2)c2ccccc2)CC1 | inactive: -2.98%
30 | COc1ccc(NC2CCN(C(=O)OC(C)(C)C)CC2)cc1 | inactive: 22.1%
31 | COc1cc(C(=O)NCC2(N3CCCCC3)CCCCC2)ccc1OC(F)F | inactive: 11.3%
32 | O=C(NCC1(N2CCOCC2)CCCCC1)c1cc(=O)[nH]c2ccccc12 | inactive: 23.4%
33 | O=C(NCC1(N2CCCCC2)CCCCC1)c1cccc(C(F)(F)F)c1 | inactive: 36%
34 | CC(C)(C)OC(=O)N1CCC(N(C(=O)c2ccccc2)c2ccc(Cl)cc2)CC1 | inactive: -1.2%
35 | N#Cc1ccc(C(=O)NCC2(N3CCCCC3)CCCCC2)cc1 | inactive: 41.2%
36 | c1ccc(CN2CCC(Nc3ccccc3)CC2)cc1 | inactive: 3.71%
37 | CCCN1CCC(Nc2cc(OC)cc(OC)c2)CC1 | inactive: 40.4%
38 | CN(C)C1(CNC(=O)c2cccc(C#N)c2)CCCCC1 | inactive: 7.59%
39 | COc1ccc(C(=O)NCC2(N3CCOCC3)CCCCC2)cc1OC | inactive: 12.9%
40 | CCc1cc(C(=O)NCC2(N3CCCCC3)CCCCC2)sc1C | inactive: 33.7%

Row | SMILES | activity change
41 | O=C(OC1CN2CCC1CC2)C1c2ccccc2C=Cc2ccccc21 (stereo not drawn) | inactive: 18.9%
42 | N/C(=N\O)c1c(N)no[n+]1[O-] | inactive: 15.3%
43 | CCOC(=O)N1CCC(Nc2ccc(C)cc2)CC1 | inactive: 29.9%
44 | CCCOc1ccc(C(=O)NCC2(N(C)C)CCCCC2)cc1 | inactive: 17.2%
45 | CC(C)(C)OC(=O)N1CCC(Nc2ccccc2)CC1 | inactive: 15.5%
46 | O=C(O)C1(Nc2ccccc2)CCN(Cc2ccccc2)CC1 | inactive: 6.57%
47 | CCOc1ncccc1C(=O)NCC1(N2CCOCC2)CCCCC1 | inactive: -3.59%
48 | CN1CCC(Nc2ccc(F)c(Cl)c2)CC1 | inactive: 22.5%
49 | CCCOc1ccc(C)cc1CN(CCCl)CCCl | inactive: 34.9%
50 | CN1CCC(Nc2ccc(Cl)cc2)CC1 | inactive: 24.1%
51 | CCC(CO)(C(=O)OC1CN2CCC1CC2)c1ccccc1 (stereo not drawn) | inactive: 2.52%
52 | COc1cc(OC)cc(C(=O)NCC2(N3CCOCC3)CCCCC2)c1 | inactive: -10.6%
53 | COc1cccc(C(=O)N(c2cc(C)cc(C)c2)C2CCN(C(=O)OC(C)(C)C)CC2)c1 | inactive: 9.58%
54 | Cc1ccc(C(=O)NCC2(N3CCCCC3)CCCCC2)o1 | inactive: 9.09%
55 | Fc1ccccc1NC1CCN(Cc2ccccc2)CC1 | inactive: 0.146%
56 | COc1cc(OC)cc(C(=O)NCC2(N3CCCCC3)CCCCC2)c1 | inactive: -8.85%
57 | CN(C)c1ccc(C(=O)NCC2(N3CCCCC3)CCCCC2)cc1 | inactive: 12.2%
58 | CCN1CCC(Nc2cccc(F)c2)CC1 | inactive: 28.7%
